Laboratory results from patent US9314383B2, “Absorptive article” (UNICHARM CORPORATION, priority 2012, dated 2016).

Assay: Water solubility in 100 g of water at 25° C.
Details: for Water solubility: in 100 g of water at 25° C., after 24 hours
From the text: The term “solubility” used herein in regard to water solubility includes cases where the sample completely dissolves in deionized water to form a homogeneous mixture, and cases where the sample is completely emulsified. Here, “completely” means that no mass of the sample remains in the deionized water.

Substance	Water solubility [g]	Water solubility (g)
Dodecanoic acid (C12) monoester of butylene glycol [COMPOL BL]	<0.05	
Isopropyl citrate		20< g
Octadecanoic acid (C18) monoester of butylene glycol [COMPOL BS]	<0.05	
